Values quoted from earlier work, collected in US11407812B2, “Targeted expression of chloride channels and methods of use thereof” (GOLEINI INC., priority 2015, dated 2022).

Biological target: GlyR (UniProt P07727)
Conditions: read-out: EC50 reported by Sontheimer H. et al. (1989); similar assay, α-subunit only; cited from earlier work

Which EC50 does the source give for `NCC(=O)O` [Glycine] here?
Its EC50 is 100 µM.
